Test results from US11401278B2, “Macrocyclic indole derivatives” (The Broad Institute, Inc., priority 2017, dated 2022).

Amino acid sequences for entries named in this document (tags omitted). Chains listed by the source or under a name are the forms on record and can include a tag or linker. Residues count along the entry.
UniProt P10415, 1-211 with tags or gaps limits assumed: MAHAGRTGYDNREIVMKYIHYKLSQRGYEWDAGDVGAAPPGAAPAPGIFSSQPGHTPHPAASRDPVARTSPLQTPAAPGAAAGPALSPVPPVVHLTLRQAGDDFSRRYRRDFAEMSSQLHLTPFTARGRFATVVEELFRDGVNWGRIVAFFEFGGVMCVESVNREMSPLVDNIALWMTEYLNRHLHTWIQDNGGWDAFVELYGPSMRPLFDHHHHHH

Assays:
[1] = system: SUDHL5
Procedure: Assay 6 Induction of Cytotoxicity Upon Treatment of Cells with Selected Compounds
In principle, compounds that induce apoptosis will concomitantly induce cell cytotoxicity. Therefore, cytotoxicity assays were run in parallel in SUDHL5 and SUDHL10 cells.
The different cell lines were plated in culture medium (RPMI 1640 [GIBCO #22400-089] supplemented with 10% Fetal Bovine Serum) at a density of 3,300 cells in 30 μl/well in a sterile, solid black, flat bottom, polystyrene, TC-treated 384-well microplate (Corning #3571) using Multidrop Combi Reagent Dispenser. As a control, medium without cells was also added to the plate. Cells were incubated in a humidified incubator at 37° C. overnight. On the next day, the cells were treated with compounds (stock solution, 10 mM in DMSO) using the HP D300 Digital Dispenser in a concentration range of 3.3×10e-5 M (33 μM) to 5×10e-9 M (5 nM) in a single-dot curve with at least 16 dilutions and a DMSO concentration of 0.33%. Rim wells were excluded. The cells were incubated for 5 hours in a humidified incubator at 37° C. […] Finally, luminescence was read at 0.1 ms, with a gain of 3000 using the PHERAstar FS microplate reader (BMG Labtech). […]

[2] = target: BCL-2 (Homo sapiens (Human), UniProt P10415); experiment: Protein-protein interaction assay BCL-2/Bad BH3 peptide (BCL-2 assay, TR-FRET); format: binding; conditions: read-out: BCL-2 Assay [M] (median) IC50, His-BCL-2 / Bad BH3 peptide
Procedure: Assay 3 Protein-Protein Interaction Assay: BCL-2/Bad BH3 Peptide (BCL-2 Assay)
The dose-dependent inhibition by the compounds described in this invention of the interaction between BCL-2 and the BH3 domain of Bad (both human) was determined using a steady state binding competition assay with time-resolved fluorescence energy transfer (TR-FRET) readout. […]
In the assay 11 different concentrations of each compound (0.1 nM, 0.33 nM, 1.1 nM, 3.8 nM, 13 nM, 44 nM, 0.15 μM, 0.51 μM, 1.7 μM, 5.9 μM and 20 μM) were typically measured as duplicates in the same microtiter plate. […]
The mixture was incubated in the dark for one hour at 22° C. and then overnight at 4° C. The formation of BCL-2/Bad complexes was determined by measuring the resonance energy transfer of the anti-His-Eu-cryptate antibody to the streptavidin-XL665 present in the reaction. For that purpose, the fluorescence emission at 620 nm and 665 nm after excitation at 330-350 nm was measured in a TR-FRET measuring instrument, for instance a Rubystar or a Pherastar (both from BMG Lab Technologies, Offenburg, Germany) or a Viewlux (Perkin-Elmer). […]

- IC50 [1]: 1600 nM
- IC50 [2]: > 2e-05 M
Structure (SMILES): CCc1c2c(nn1C)CNS(=O)(=O)CCCn1c(C(=O)O)c(CCCOc3cccc4cc(F)ccc34)c3ccc(Cl)c-2c31
